In ChEMBL document CHEMBL2321834 (J Med Chem, 2013):

Species: Homo sapiens
Assay: Selectivity ratio of IC50 for 17beta-HSD1 in human placental microsomal fraction to IC50 for 17beta-HSD2 in human placental microsomal fraction
Format: microsomes
Conditions: Microsome

Ratio IC50: > 165
Structure (SMILES): COc1cccc(N(C)C(=O)c2ccc(-c3ccc(OC)c(F)c3)s2)c1
